# Apparent affinities of Ab-95 variants for a coronavirus HR2 peptide

Target: peptide PDVDLGDISGINAS, taken from heptad repeat 2 (HR2) of SARS-CoV-2 spike.

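The parent was found by panning a naive human phage display library on the peptide. Variants in AAYL52 differ from the parent at up to three CDR positions; double and triple changes were sampled at random. The scFvs were displayed on barcoded MATa yeast, the peptide on MATalpha yeast. Binding brings cells together so that they mate, and sequencing counts the barcode pairs among the diploids. Each replicate has its own calibration line, from reference interactions of the BCL2 family. Mating was done three times.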

Ab-95 is the parent antibody, in scFv form: VH, then the linker GGGGSGGGGSGGGGS, then VL. The heavy chain is unchanged in all variants.
VH: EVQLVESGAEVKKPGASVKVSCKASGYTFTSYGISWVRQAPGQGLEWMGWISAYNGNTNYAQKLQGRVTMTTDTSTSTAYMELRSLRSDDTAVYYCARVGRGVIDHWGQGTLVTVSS
VL: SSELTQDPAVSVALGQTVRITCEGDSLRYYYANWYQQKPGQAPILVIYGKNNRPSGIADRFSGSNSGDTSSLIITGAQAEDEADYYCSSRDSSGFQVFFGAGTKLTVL

Each variant is given by its three light chain CDRs, as the data file delimits them; those of the parent are EGDSLRYYYAN, GKNNRPS, SSRDSSGFQVF.
Values are log10 of the apparent Kd in nM; lower means stronger binding.
Replicates are averaged; those with no signal do not enter the mean.
A pair that was not seen in that replicate is written "nd"; this usually means weak binding, but a binder can also be missed.

For EGDMWRYYYAN / GKNNRPS / SSRDTSGFQVF, the assay gave nd, nd, nd (controls 0 of 9).
For EEDSLRYLYAN / GQNNRPS / SSRDSSGFQVF, the assay gave nd, 5.52, nd (controls 3 of 9).
For EGDSLRYYYAN / AKNNRPS / STRDSSGFQVF, the assay gave nd, 2.84, 3.58 (mean 3.21; controls 1 of 9).
For EGDSLRYFYEN / GKNNRPS / SSRSSSGFQVF, the assay gave 2.79, 5.21, nd (mean 4.00; controls 7 of 9).
For EGDSLRYYYAN / KKNQAPS / SSRDSSGFQVF, the assay gave 5.73, 4.64, nd (mean 5.19; controls 1 of 9).
For EGDSLRYYDAN / GKNNRPS / HSRDSSGMQVF, the assay gave nd, 4.13, 4.03 (mean 4.08; controls 2 of 9).
For EGRSARYYYAN / QKNNRPS / SSRDSSGFQVF, the assay gave 4.51, nd, nd (controls 1 of 9).
For EGDSLRYYYAN / GKNNRES / CSRDSSGFQVP, the assay gave 2.26, 3.06, 1.78 (mean 2.37; controls 4 of 9).
For EGDSLRAYDAN / GKNNRPS / SSRDSSGIQVF, the assay gave 1.85, 2.32, 2.52 (mean 2.23; controls 2 of 9).
For EGSSLRYGYAN / GKNNRPS / SSRDSSGFLVF, the assay gave 1.29, 1.22, 0.78 (mean 1.10; controls 2 of 9).
For EGDSRRYYYAN / GSNNRPS / SSRDSSGFQVF, the assay gave nd, nd, nd (controls 1 of 9).
For EGDSLRYYYAN / GKNWRPS / SSYDSSGFQVF, the assay gave 4.96, 5.32, nd (mean 5.14; controls 2 of 9).
For EGSSLRYYYAN / GKLNRPS / SSRNSSGFQVF, the assay gave 4.05, nd, nd (controls 4 of 9).
For EGDSMRYYYAN / GKNNRPL / SSRDSDGFQVF, the assay gave 2.94, 3.26, 2.79 (mean 3.00; controls 6 of 9).
For EGVSLRYYYAN / GKNNWPS / SSRDSSGFQHF, the assay gave 3.70, nd, nd (controls 1 of 9).
For EGDSLREYYDN / GKNGRPS / SSRDSSGFQVF, the assay gave 5.26, 4.38, 4.29 (mean 4.64; controls 3 of 9).
For EGDSLRYYYAI / GTNNRIS / SSRDSSGFQVF, the assay gave nd, nd, nd (controls 0 of 9).
For EGDSWRYEYAN / GKNNRYS / SSRDSSGFQVF, the assay gave 3.57, nd, nd (controls 5 of 9).
For EGDSLRYYKAN / GCNNRPY / SSRDSSGFQVF, the assay gave 2.42, 2.30, 1.87 (mean 2.20; controls 3 of 9).
For EGDYLRYYYAN / GKNNRPS / SSFDSSPFQVF, the assay gave nd, nd, nd (controls 0 of 9).
For EGDSLRYYGAI / GKNNRWS / SSRDSSGFQVF, the assay gave 3.56, nd, 4.25 (mean 3.90; controls 2 of 9).
For EGDSLRYYYAN / GKNNNPS / SSRDSSGFFRF, the assay gave nd, nd, nd (controls 1 of 9).
For EGDSLRYYYAN / GKNWRPS / SSRDSSGVQRF, the assay gave nd, 3.81, nd (controls 1 of 9).
For EGDSLRYYYAI / GKNNRPS / MSRDSSGFQVL, the assay gave 3.42, 4.99, 4.40 (mean 4.27; controls 3 of 9).
For EGDNLCYYYAN / GKNNRQS / SSRDSSGFQVF, the assay gave 4.42, nd, nd (controls 0 of 9).
For EGDSLKYVYAN / GKNNRPS / ISRDSSGFQVF, the assay gave 2.72, 2.55, 3.32 (mean 2.86; controls 2 of 9).
For EGDSQEYWYAN / GKNNRPS / SSRDSSGFQVF, the assay gave 3.38, 3.57, nd (mean 3.48; controls 6 of 9).
For EGDSLRYYYAN / GKNDRPS / SSRDSSQFQVM, the assay gave 3.10, 2.68, 2.22 (mean 2.66; controls 2 of 9).
For EGDSLRYYDAN / GKNNRPS / SSRDSSHFAVF, the assay gave nd, nd, nd (controls 0 of 9).
For EGWSLRYYYAN / GKNNRPS / RSRDGSGFQVF, the assay gave nd, nd, nd (controls 0 of 9).
For EGDSLRYWYAN / MKNNRPS / SSRDSSKFQVF, the assay gave nd, nd, nd (controls 3 of 9).

Three control strains display no target. For library AAYL52, 28% of the pairings with them gave a signal, with a median of 3.91 and one signal in twenty below 2.90, so weak values seen in few replicates may be background. For each scFv, signals with the empty controls are counted beside the result.

Data: MIT Lincoln Laboratory AlphaSeq set, Engelhart et al. 2022, doi:10.1038/s41597-022-01779-4, as distributed in FLAb.